For 33 compounds, inhibition results are on record in PubChem BioAssay AID1532 (PCMD, 2009).

The entries are a selection whose mix differs from that of the whole data set. Some structures show a salt or complex split into parts, the way the source records it. Active and inactive are the calls of the source. Rule as the data show it: active = inhibition above about 30% (passing the limit was not always enough); inconclusive = no clear call, values can overlap the other calls.

For the assay, the system named is RmlC (dTDP-4-dehydrorhamnose 3,5-epimerase) and RmlD (dTDP-4-dehydrorhamnose reductase), coupled enzyme assay. Description: RmlC and RmlD coupled enzyme inhibitors, primary screen, biochemical, 384-well, compound mixtures, retest (AID 1532). The note with it: 384-well mixture HTS, at 5.5 µM, active compounds read high.
By inhibition is commonly meant the relative decrease from the control value, in per cent. As for `CP(=O)(NC(=O)Nc1ccccc1)Oc1ccccc1` (stereo not drawn), the inhibition was inactive: -4.81%.
As for `CCOP(C)(=S)SCC(=O)NC(C)C(=O)O` (stereo not drawn), the figure is inactive: 7.17%; as for `CP(=O)(Nc1ccccn1)Oc1ccc(Cl)cc1` (stereo not drawn), inactive: -10%; as for `CP(=S)(Nn1cnnc1)Oc1ccccc1` (stereo not drawn), inactive: -9.56%.
`COc1ccccc1OP(C)(=O)Nc1ccc(C)cc1` (stereo not drawn): the inhibition was inactive: -10.6%.
As for `Cc1cc(C)cc(OP(C)(=O)Nc2ccc(C)cc2C)c1` (stereo not drawn), the figure is inactive: 8.33%.
With `Cc1ccc(C)c(NP(C)(=O)Oc2ccccc2)c1` (stereo not drawn) the figure was inactive: -9.78%; with `Cc1cc(C)cc(OP(C)(=O)Nc2ccccn2)c1` (stereo not drawn), inactive: -12.7%.
As for `COc1ccccc1OP(C)(=O)Nc1c(C)cccc1C` (stereo not drawn), the figure is inactive: -19.2%; as for `Cc1nc2ccc3ccccc3c2s1.O=[N+]([O-])c1cc([N+](=O)[O-])c(O)c([N+](=O)[O-])c1`, inactive: 11%; as for `CCOP(C)(=S)SCC(=O)NC(C)(CC)C(=O)O` (stereo not drawn), inactive: -7.72%.
Regarding `CP(=O)(Nc1ccc2c(c1)OCCO2)Oc1ccccc1` (stereo not drawn), the inhibition is inactive: 7.06%.
Take `Cc1ccccc1NP(C)(=O)Nc1ccccc1C`: the inhibition is inactive: 3.38%.
As for `COc1ccc(OP(C)(=O)Nc2cccc(Br)c2)cc1` (stereo not drawn), the figure is inactive: -7.7%; as for `CN(C)CCOC(=O)C(O)(c1ccccc1)C1CCCCC1` (stereo not drawn), inactive: 1.99%; as for `CCN(CC)CCCOC(=O)C(O)(c1ccccc1)C1CCCCC1` (stereo not drawn), inactive: 4.39%.
As for `CP(=O)(Nc1ccccc1)Oc1ccc(F)cc1` (stereo not drawn), the figure is inactive: 6.69%; as for `CP(=O)(Nc1ccccc1F)Oc1ccccc1` (stereo not drawn), inactive: 10.1%.
With `COc1ccc2c(c1O)-c1c(O)c(OC)cc3c1[C@H](C2)[N+](C)(C)CC3.O=[N+]([O-])c1cc([N+](=O)[O-])c([O-])c([N+](=O)[O-])c1[O-]` the figure was inactive: 15.8%; with `COc1ccc(OP(C)(=O)Nc2ccccn2)cc1` (stereo not drawn), inactive: -14.8%.
As for `CN(C)CCOC(=O)C(O)(c1ccccc1)C1CCCC1` (stereo not drawn), the inhibition is inactive: 30.8%.
As for `Cc1c(NP(C)(=O)Oc2ccc(C(C)C)cc2)c(=O)n(-c2ccccc2)n1C` (stereo not drawn), the figure is inactive: -9.63%.
With `COc1ccccc1OP(C)(=O)Nc1ccc(C)cc1C` (stereo not drawn) the figure was inactive: -8.3%; with `CP(=O)(Nc1ccccn1)Oc1ccccc1` (stereo not drawn), inactive: -50.5%; with `CCc1ccc(OP(C)(=O)O)cc1`, inactive: 49.1%.
As for `COc1ccccc1OP(C)(=O)Nc1ccc(C)c(C)c1` (stereo not drawn), the inhibition is inactive: 7.53%.
`Cc1nc2ccc3ccccc3c2o1.O=[N+]([O-])c1cc([N+](=O)[O-])c(O)c([N+](=O)[O-])c1`: the inhibition is inactive: 16.5%.
As for `CP(=O)(OC12CC3CC(CC(C3)C1)C2)OC12CC3CC(CC(C3)C1)C2`, the inhibition is inactive: -9.74%.
With `CCN(CC)CC(O)COC(=O)C(O)(c1ccccc1)C1CCCCC1` (stereo not drawn) the figure was inactive: 4.19%; with `COc1ccccc1OP(C)(=O)Nc1c(C)n(C)n(-c2ccccc2)c1=O` (stereo not drawn), inactive: 3.11%; with `CP(=O)(Oc1ccccc1)N1CCOC1=O` (stereo not drawn), inactive: -19%.
As for `CC(C)(C)c1ccc(OP(C)(=O)O)cc1`, the figure is inactive: 5.88%; as for `CP(=O)(Nc1ccc(Cl)cc1)Oc1ccc(F)cc1` (stereo not drawn), inactive: 2.32%.
